Reported properties for industrial, environmental and drug-like chemicals

Data: OPERA 2.9 data sets, kmansouri/OPERA on GitHub.

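These are experimental values that the OPERA curators gathered from public databases to train and test their QSAR models. A listed value is a point estimate from one report or more. Method and conditions are not stated for these values. Where a salt, mixture or single isomer is drawn, the source does not say that exactly this form was tested. Some entries may be limits or estimates that an upstream database listed as plain numbers.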

Melting points are in °C. Boiling points are in °C, nominally at 760 mmHg. The octanol-water partition coefficient is given as log10; larger values mean a more lipophilic compound. Water solubility is log10 of mol/L, nominally at 25 °C; higher is more soluble. Vapor pressure is log10 of mmHg; the set covers 15 to 30 °C, mostly 20 to 25 °C. The Henry's law constant is on a log10 scale in atm·m3/mol (set defined at 25 °C); higher favours air over water. The unbound fraction in human plasma runs from 0 (all bound) to 1 (all free). Clint is human hepatic intrinsic clearance in µL/min per million cells; 0 means that no clearance was seen. Cells with "–" have no entry in this list.

SMILES	name	melting point (°C)	boiling point (°C)	logP	log solubility (log10 mol/L)	vapor pressure (log10 mmHg)	log Henry constant (log10 atm·m3/mol)	fu	hepatic Clint (µL/min/10^6 cells)
O=C(O)C(F)(F)C(F)(F)C(F)(F)F	Perfluorobutanoic acid	–	–	–	-2.68	–	-4.912	–	–
CC[C@@]12CCC3=C(CCc4cc(OC)ccc43)[C@H]1CCC2=O	13-Ethyl-3-methoxygona-1,3,5(10),8-tetraen-17-one	–	–	4.88	-4.773	–	–	–	–
CCCCCCCC[N+](C)(C)[O-]	N,N-Dimethyloctylamine N-oxide	–	380	–	–	-4.949	–	–	–
C=C(C)C(=O)OCCCCCCOc1ccc(/C=C/C(=O)OC)cc1	–	52.25	272.3	5.182	-8.062	-7.877	–	–	–
CCCCOCCCN	1-Propanamine, 3-butoxy-	–	–	1.05	–	-0.014	–	–	–
c1ccc(-c2noc(-c3cccs3)n2)cc1	3-Phenyl-5-(2-thienyl)-1,2,4-oxadiazole	108.6	–	4.13	-5.265	-6.235	–	–	–
CN1CCN(C)C1=O	1,3-Dimethyl-2-imidazolidinone	–	–	-0.3	–	-0.828	–	–	–
CC(O)CN(CC(C)O)C(=O)CCCCC(=O)N(CC(C)O)CC(C)O (stereo not given)	Hexanediamide, N1,N1,N6,N6-tetrakis(2-hydroxypropyl)-	99.85	–	–	–	-4.417	–	–	–
CC(C)COc1ccc2ccccc2c1	2-(2-Methylpropoxy)naphthalene	–	–	5.1	–	-2.949	–	–	–
O=C(c1ccccc1)c1ccc(O)c(O)c1O	2,3,4-Trihydroxbenzophenone	–	–	2.8	-3.345	-6.745	–	–	–
C[C@]12CC[C@@H]3c4ccc(O)cc4CC[C@H]3[C@@H]1C[C@@H](O)[C@@H]2O	Estriol	–	–	–	-3.89	-9.706	–	–	–
CC1(C)S[C@@H]2[C@H](NC(=O)[C@H](C(=O)O)c3ccsc3)C(=O)N2[C@H]1C(=O)O	Ticarcillin	–	–	–	-3.73	–	–	0.5183	–
CCCC1CC=C(C)C(=O)C1 (stereo not given)	2-Methyl-5-propylcyclohex-2-en-1-one	-45.4	231.9	3.2	-2.353	-0.202	–	–	–
CC(C)c1ccc2sc3ccccc3c(=O)c2c1	2-(Propan-2-yl)-9H-thioxanthen-9-one	–	–	5.59	-5.874	-6.494	–	–	–
C=C[C@]1(C)C[C@@H](OC(=O)CO)[C@]2(C)[C@H](C)CC[C@]3(CCC(=O)[C@H]32)[C@@H](C)[C@@H]1O	Pleuromutilin	–	–	1.36	-2.837	-9.795	–	–	–
CNC[C@H](O)CC12CCC(c3ccccc31)c1ccccc12	Levoprotiline	–	–	–	–	–	–	0.19	3.037
CC(=O)O[C@]1(C(C)=O)CC[C@H]2[C@@H]3C=C(Cl)C4=CC(=O)[C@@H]5C[C@@H]5[C@]4(C)[C@H]3CC[C@@]21C	Cyproterone acetate	–	–	–	–	–	–	0.0584	4.46
CC(O)C1C(=O)N2C(C(=O)O)=C(SC3CNC(C(=O)N(C)C)C3)C(C)C12.O.O.O (stereo not given)	Meropenem trihydrate	–	–	-0.6	-1.89	–	–	–	–
CC(C)CNCC(C)C	2-Methyl-N-(2-methylpropyl)-1-propanamine	–	–	2.63	–	–	-9.888	–	–
Cc1ccc(S(=O)(=O)NC(=O)NN2CC3CCCC3C2)cc1 (stereo not given)	Gliclazide	–	–	2.6	-4.29	–	–	–	–
CC(C)=CCCc1ccc2c(c1)C(=O)c1ccccc1C2=O	–	90.45	–	–	-7.986	–	–	–	–
O=C1NC(c2ccccc2)(c2ccccc2)C(=O)N1COP(=O)(O)O	Fosphenytoin	174.8	–	–	–	–	–	0.05	–
O=C(CCS)OCCOC(=O)CCS	1,2-Ethanediyl 3'-mercaptopropionate	–	–	1.94	-1.829	-1.743	–	–	–
CSC(C)=NO	S-Methyl N-hydroxythioacetimidate	–	–	–	–	-2.028	-7.203	–	–
C=CC(=O)OCCOCC(CC)CCCC (stereo not given)	–	–	–	–	-3.074	-0.362	–	–	–
CCCCCCCCCCCC(=O)N(C)CC(=O)OC(C)C	Isopropyl lauroyl sarcosinate	-10.1	–	5.8	-5.593	-5.979	–	–	–
O=C(O)c1cc(C(=O)O)cc([N+](=O)[O-])c1	5-Nitroisophthalic acid	–	–	1.1	-2.178	–	–	–	–
CNC=O	N-Methylformamide	–	–	-0.97	–	-0.597	–	–	–
c1ccc2cc3c(ccc4ccccc43)cc2c1	–	159	–	–	–	–	–	0.01121	18.27
C=CC(CC)CO (stereo not given)	2-ethylbut-3-en-1-ol	–	–	1.7	–	-0.07	–	–	–
O=C(OCC1CO1)c1ccc(C(=O)OCC2CO2)cc1 (stereo not given)	Bis[(oxiran-2-yl)methyl] benzene-1,4-dicarboxylate	–	–	1.7	-3.558	-6.294	–	–	–

Excerpt, the final 2 entries:

SMILES	name	melting point (°C)	boiling point (°C)	logP	log solubility (log10 mol/L)	vapor pressure (log10 mmHg)	log Henry constant (log10 atm·m3/mol)	fu	hepatic Clint (µL/min/10^6 cells)
C=CC(CC)CO (stereo not given)	2-ethylbut-3-en-1-ol	–	–	1.7	–	-0.07	–	–	–
O=C(OCC1CO1)c1ccc(C(=O)OCC2CO2)cc1 (stereo not given)	Bis[(oxiran-2-yl)methyl] benzene-1,4-dicarboxylate	–	–	1.7	-3.558	-6.294	–	–	–